For test [1], the system named is Acinetobacter baumannii. The following applies: ATCC 19606 = CIP 70.34 = JCM 6841.
Test [2] deals with Staphylococcus aureus. To be noted: ATCC 43300.
In test [3] the test system is Enterococcus faecalis. To be noted: ATCC 51299.
Test [4] relates to Pseudomonas aeruginosa. To be noted: ATCC 27893.
Test [5] concerns Escherichia coli. The following applies: ATCC 25922.
In test [6] the test system is Klebsiella pneumoniae. To be noted: 700603.
In test [7] the test system is Staphylococcus aureus. The following applies: ATCC 43300. The source holds these as a separate data set.
The subject of test [8] is Acinetobacter baumannii. To be noted: ATCC 19606 = CIP 70.34 = JCM 6841. The source holds these as a separate data set.
Test [9] deals with Pseudomonas aeruginosa. The following applies: ATCC 27893. This is another data set of the same source.
The subject of test [10] is Enterococcus faecalis. The following applies: ATCC 51299. The source holds these as a separate data set.
The test system of test [11] is Escherichia coli. To be noted: ATCC 25922. The source holds these as a separate data set.
Test [12] deals with Klebsiella pneumoniae. The following applies: 700603. The source holds these as a separate data set.

Active and inactive are the calls of the source. The calls are words filed in the database; no cut-off is given here.

For COLISTIN SULFATE, the MIC80 amounted to 1.6 µM against Acinetobacter baumannii [1]; 3.1 µM against Pseudomonas aeruginosa [4]; 0.78 µM against Escherichia coli [5]; 1.6 µM against Klebsiella pneumoniae [6]; 1.6 µM against Acinetobacter baumannii [8]; 3.1 µM against Pseudomonas aeruginosa [9]. For the same sequence, the MIC80 in the test with Escherichia coli [11] is 0.78 µM; in the test with Klebsiella pneumoniae [12], 1.6 µM. For the same sequence, the MIC80 entry in the test on Staphylococcus aureus [2], in the test on Enterococcus faecalis [3], with Staphylococcus aureus [7] and with Enterococcus faecalis [10] was “inactive” in each case.

Values taken from ChEMBL document CHEMBL4673173, “Cyrene(TM) is a green alternative to DMSO as a solvent for antibacterial drug discovery against ESKAPE pathogens” (RSC Med Chem, 2020).
